Results as given in ChEMBL document CHEMBL2417522, “N-aryl-6-methoxy-1,2,3,4-tetrahydroquinolines: a novel class of antitumor agents targeting the colchicine site on tubulin” (Eur J Med Chem, 2013).
Values after ≈ are worked out from the molar mass of the structure shown.

How the values were obtained:
[1] = system: Liver microsomes; test: Half life in human liver microsomes at 1 uM by LC-MS analysis; type: ADME, Microsome
[2] = Aqueous solubility of the compound at pH 7.4 after 4 hrs by HPLC-UV method; type: physicochemical; settings: buffer, pH 7.4, 4 h
Outline: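 Solubility at pH 7.4: DMSO stock (1.0 mg/mL) diluted into phosphate buffer, final DMSO 1%; stirred 4 h at rt, centrifuged; saturated supernatant quantified by HPLC–UV against a standard curve (50–0.20 µg/mL in ACN). Triplicate samples.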

COc1ccc2c(c1)CCCN2c1nc(Cl)nc2ccccc12
t1/2 [1]: 10.59 min
solubility [2]: 0.45 µg/mL (≈ 1.38 µM)
